# According to US9168317B2, “In vivo imaging method of mood disorders” (GE Healthcare Limited, priority 2010, dated 2015):
# Experiment: In vivo biodistribution method
# Details: ratio olfactory bulb:striatum, 30 min after injection, Wistar rats
smiles,measurement,value
CCN(CC)C(=O)C1CCCc2c1c1cc(F)ccc1n2CC[18F] (stereo not shown) [compound 9],OB:Str 30 min,3.72
